Earlier results on one compound are cited in the PKSmart pharmacokinetics tables (Seal et al. 2025).

One may read the Vd as a proportionality between amount in the body and measured concentration, not a real space. The term clearance denotes the rate of elimination divided by the concentration. As a reminder, the fraction unbound is the share of the substance not bound to proteins or other matrix.

The data set in a line: Lombardo et al. 2013, J Clin Pharmacol 53:178, doi 10.1177/0091270012440282. Particulars: rat.

For the compound `CC(C)N1CCC(N(C(=O)Cc2ccccc2)c2ccc(Cl)cc2)CC1`, for the setting “in vivo, iv”, the Vd is 15.7 L/kg and the clearance is 103 mL/min/kg. Further, for the setting “plasma”, the fraction unbound is 0.26.
